The other results are listed elsewhere or left out.
Tested on: A. baumannii ATCC 17978
Assay: relative growth (fraction of control); higher = less inhibition
Settings: 50 µM

SMILES	relative growth
COc1cc(C(=O)NCCCCCC(=O)O)cc(OC)c1OC	1.12
CC(=O)N1C(=O)N(C(C)=O)[C@@H](O)[C@H]1O	1.04
C[C@@H]1CN([C@H](C)CO)S(=O)(=O)c2ccc(-c3ccc(C(=O)N(C)C)cc3)cc2O[C@@H]1CN(C)C(=O)C1CC1	1.08
O=C1c2ccncc2C(=O)N1CO	0.957
Cn1cnc(S(=O)(=O)N[C@H]2CC[C@@H](CC(=O)N3CCN(c4ccccc4)CC3)O[C@@H]2CO)c1	0.96
COC(=O)CCn1cc(F)c(N)nc1=O	1.07
C=CC[C@@H](CC(=O)N(CCO)Cc1ccccc1)C(=O)N[C@H](COC(=O)[C@H](CC=C)CC(=O)OC(C)(C)C)Cc1c[nH]c2ccccc12	0.822
Cc1ccc(C(=O)c2ccc(Oc3ccccc3)cc2)cc1	1.03
O=C(C[C@H]1C=C[C@H](NC(=O)c2cccnc2)[C@@H](CO)O1)NCc1ccncn1	1.1
CSc1nc(C)cc(NC(N)=O)n1	1.18
CO[C@@]1(C(=O)NN)COc2ccccc2O1	0.911
Cc1ccc(S(=O)(=O)N(c2cccc(-n3cc(CCC(=O)NO)nn3)c2)S(=O)(=O)c2ccc(C)cc2)cc1	0.812
O=C(C[C@@H]1CC[C@@H]2[C@H](COC[C@H](O)CN2C(=O)c2ccc(F)cc2)O1)NCCCN1CCOCC1	1.02
C1CCC(C(CC2CCCCN2)C2CCCCC2)CC1.O=C(O)/C=C\C(=O)O (stereo unspecified)	0.246
C[C@@]1(N)CCCC[C@@H]1C(=O)O	0.931
O=C(C[C@H]1C=C[C@@H](NC(=O)c2ccncc2)[C@H](CO)O1)NCc1ccncn1	1.22
Cn1nccc1NC(=O)/C=C/C(=O)O	1.1
Cc1ncc(CO)c(CO)c1O	0.913
COc1cccc(C#Cc2ccc3c(c2)O[C@H](CN(C)C(C)=O)[C@@H](C)CN([C@H](C)CO)S3(=O)=O)c1	0.717
Cc1cccc(S(=O)(=O)N2C[C@@H](O)COC[C@H]3O[C@@H](CC(=O)N4CCN(C)CC4)CC[C@@H]32)c1	0.977
COc1ccc(-c2ccc3c(c2)O[C@H](CN(C)CC2CCOCC2)[C@@H](C)CN([C@H](C)CO)S3(=O)=O)cc1	0.906
O=C1c2ccccc2C(=O)C1c1ccc(Cl)cc1	0.914

SMILES	relative growth
CN(C)CCOc1ccc(/C(=C(/CCCl)c2ccccc2)c2ccccc2)cc1.O=C(O)CC(O)(CC(=O)O)C(=O)O	1.05
c1cn(CCN2CCNCC2)cn1	1.07
O=C(C[C@H]1C[C@H]2c3cc(NS(=O)(=O)c4ccc(F)cc4)ccc3O[C@H]2[C@@H](CO)O1)NCc1cccnc1	1.11
CCOC(=O)[C@H]1CNC(=S)N[C@@]1(C)O	1.09
COCC#Cc1ccc2c(c1)O[C@@H](CN(C)C(=O)Nc1ccccc1F)[C@H](C)CN([C@H](C)CO)S2(=O)=O	1.03
COc1ccc2nccc(Cl)c2c1	1.07
N[C@H]1C[C@@H]1c1ccc(-c2cccc(O)c2)cc1	1.04
CCS(=O)(=O)NCC[C@H]1CC[C@@H](NC(=O)Cc2ccccn2)[C@H](CO)O1	0.903
O=C(C[C@H]1CC[C@@H]2[C@H](COC[C@H](O)CN2S(=O)(=O)c2ccc(Cl)cc2)O1)NCCN1CCCCC1	0.928
NCC[C@@H](Cc1ccccc1)c1ccc2c(c1)OCO2	0.982
CC1=CC(C)(C)N(C(=O)Nc2ccc(C)cc2)c2ccccc21	1.11
CC(C)C#Cc1ccc2c(c1)O[C@@H](CN(C)C(=O)c1cnccn1)[C@@H](C)CN([C@@H](C)CO)S2(=O)=O	0.834
FC(F)(F)c1ccc(/C=N/c2cc(Cl)cc(Cl)c2)cc1	1.04
CC(C)C#Cc1ccc2c(c1)O[C@@H](CN(C)C(=O)c1cnccn1)[C@H](C)CN([C@@H](C)CO)S2(=O)=O	0.94
CCCCCCCC/C=C\CCCCCCCC(=O)[O-].[NH3+]CCO	1.35
CCCNC(=O)N1C[C@H](O)COC[C@@H]2O[C@@H](CC(=O)N3CCOCC3)CC[C@H]21	0.938
N[C@H](CCC(=O)O)C(=O)O	1.17
N[C@@H]1CONC1=O	0.888
N[C@H](c1ccc(Cl)cc1)c1cccnc1	0.948
Cc1ccccc1S(=O)(=O)N1C[C@H](O)COC[C@H]2O[C@H](CC(=O)N3CCN(C)CC3)CC[C@@H]21	0.964
O=c1[nH][n+](-c2ccccc2)no1	0.986
CCNC(=O)C[C@H]1CC[C@H](NC(=O)C2CCOCC2)[C@@H](CO)O1	1.03

SMILES	relative growth
COc1ccc(NC(=O)N[C@H]2CC[C@@H](CCNC(=O)CN3CCOCC3)O[C@@H]2CO)cc1	0.91
CN(Cc1ccccc1)C[C@H]1C[C@@H](c2ccc(CO)cc2)O[C@H](c2ccc(NC(=O)CCCCCCC(=O)NO)cc2)O1	0.914
OC[C@H]1O[C@H](O[C@H]2[C@H](O)[C@@H](O)[C@H](O)O[C@@H]2CO)[C@H](O)[C@@H](O)[C@@H]1O	1.02
CC1=CC2(CO)C(=O)[C@]3(CO3)C1[C@H]1[C@]2(C)C=C(CO)C(=O)[C@]12CO2 (stereo partly specified)	0.539
C[C@@H]1CN([C@H](C)CO)S(=O)(=O)c2ccc(C#CC3CC3)cc2O[C@@H]1CN(C)Cc1cccc(F)c1	0.985
COc1ccc([Si](C)(C)[C@H]2[C@H](CCn3cc([C@H](O)c4ccccc4)nn3)O[C@@]3(C(=O)N(C)c4c(Br)cc(C)cc43)[C@@H]2C)cc1	1.16
C[C@H]1CN([C@@H](C)CO)S(=O)(=O)c2ccc(C#Cc3ccc(F)cc3)cc2O[C@H]1CN(C)S(=O)(=O)c1cn(C)cn1	1.03
C[C@@H]1CN([C@@H](C)CO)C(=O)c2cc(Br)cnc2O[C@H]1CN(C)S(=O)(=O)c1ccc(F)cc1	0.946
CC(C)(C)c1cc(C(C)(C)C)n(-c2ccc(-n3cccc3)cc2)n1	1.23
CN(C)CC(=O)N[C@H]1CC[C@@H](CCNC(=O)C2CC2)O[C@H]1CO	1.14
O=C(CN1CCOCC1)N[C@@H]1CC[C@@H](CCNC(=O)Nc2cc(F)ccc2F)O[C@@H]1CO	1.1
O=C(O)c1nn(Cc2ccccc2)nc1C(=O)O	0.967
Cc1cccc(O)c1	0.833
Cc1cccc(C)c1Nc1nc2c(C)cc(C)c(C)c2s1	0.963
Cc1ccc(S(=O)(=O)N2C[C@H](O)COC[C@H]3O[C@@H](CC(=O)NCc4ccc5c(c4)OCO5)CC[C@@H]32)cc1	1.04
O=C(C[C@H]1CC[C@H]2[C@@H](COC[C@@H](O)CN2C(=O)c2ccncc2)O1)NCc1ccc(-c2ccccc2)cc1	0.987
O=C(O)/C=C/c1ccc(O)c(O)c1	1.05
CC(CCc1ccccc1)NCC(O)c1ccc(O)c(C(N)=O)c1.Cl (stereo unspecified)	0.891
CN(C)c1nc2cc(Cl)ccc2o1	0.937
C[C@@H]1CN([C@@H](C)CO)S(=O)(=O)c2ccc(C#CCN(C)C)cc2O[C@@H]1CN(C)S(C)(=O)=O	1.08
O=C(C[C@@H]1C=C[C@@H](NC(=O)c2cccc(F)c2)[C@@H](CO)O1)NCCN1CCCC1	1.07
O=C(C[C@@H]1C[C@H]2c3cc(NC(=O)Nc4ccc(C(F)(F)F)cc4)ccc3O[C@H]2[C@H](CO)O1)NC1CCCCC1	1.09

SMILES	relative growth
C=CC[C@@H](CC(=O)NCCO)C(=O)N[C@H](COC(=O)[C@@H](CC=C)CC(=O)OC(C)(C)C)Cc1ccccc1	0.819
C[C@@H]1CC[C@@]2(OC1)OC1CC3C4CC=C5C[C@@H](O)CC[C@]5(C)C4CC[C@]3(C)C1[C@@H]2C (stereo partly specified)	1.13
O=S1(=O)COC[C@@H](c2ccccc2)N1	1.08
CN(C)CC(=O)N[C@@H]1CC[C@H](CC(=O)NCCN2CCCCC2)O[C@H]1CO	0.987
CO/N=C1\CN(c2nc3c(cc2F)c(=O)c(C(=O)O)cn3C2CC2)CC1CN.CS(=O)(=O)O (stereo unspecified)	0.132
CC(C)(C)NC(=O)[C@@H]1CN(Cc2cccnc2)CCN1C[C@H](O)C[C@H](Cc1ccccc1)C(=O)N[C@@H]1c2ccccc2C[C@@H]1O	0.979
CC[C@]1(O)CC2CN(CCc3c([nH]c4ccccc34)[C@@](C(=O)OC)(c3cc4c(cc3OC)N(C)[C@H]3[C@@](O)(C(=O)OC)[C@H](OC(C)=O)[C@]5(CC)C=CCN6CC[C@]43[C@@H]65)C2)C1.O=S(=O)(O)O (stereo partly specified)	0.965
C[C@H]1Cc2cc(S(=O)(=O)N(C)CC(=O)N3CCOCC3)ccc2N1C(=O)C1CC1	1.1
COc1cccc(NC(=O)N[C@H]2C=C[C@@H](CC(=O)N3CCOCC3)O[C@H]2CO)c1	1.13
C[C@H](CO)N1C[C@H](C)[C@H](CN(C)C(=O)c2ccccn2)Oc2cc(C#Cc3ccc(F)cc3)ccc2S1(=O)=O	0.799
CCOC(=O)NNc1nncc2ccccc12.Cl	0.927
NCC[C@@H]1CC[C@H](NC(=O)C2CC2)[C@H](CO)O1	0.95
O=C(O)[C@@H]1CC(=O)N(Cc2cccnc2)C1	1.17
Cc1cc(=O)oc2cc(O)c(O)cc12	0.937
COc1ccc(CC2c3cc(OC)c(OC)cc3CC[N+]2(C)CCC(=O)OCCCCCOC(=O)CC[N+]2(C)CCc3cc(OC)c(OC)cc3C2Cc2ccc(OC)c(OC)c2)cc1OC.O=S(=O)([O-])c1ccccc1.O=S(=O)([O-])c1ccccc1 (stereo unspecified)	1.11
C[C@H]1CCCCN1C(=O)CCS(=O)(=O)c1ccc2c(c1)n(C)c(=O)c(=O)n2C	1.05
CCCC#Cc1cnc2c(c1)C(=O)N([C@H](C)CO)C[C@H](C)[C@H](CN(C)S(=O)(=O)c1cn(C)cn1)O2	0.995
C[C@H](CO)N1C[C@H](C)[C@H](CN(C)C(=O)Nc2cccc(F)c2)Oc2cc(C#CC3(O)CCCC3)ccc2S1(=O)=O	0.733
COc1ccc(CCNC(=O)[C@@]2(Cc3ccccc3I)c3ccccc3C(=O)N(C3CCCCC3)[C@H]2c2ccc(CO)cc2)cc1	1.16
Cc1c(C(=O)O)sc(=O)n1C	1.2

— published antibiotic growth screens (doi:10.1038/s41589-023-01349-8)
